This is an account of results in patent US20140066465A1, “CANCER TREATMENT USING TYROSINE KINASE AND NF-kB INHIBITORS” (The Cleveland Clinic Foundation, priority 2012, published 2014).

This experiment concerns cancer cells. The settings on record: cancer cells versus normal cells.

Molecules are shown by their SMILES.

Take `CCN(CC)CCCC(C)Nc1c2ccc(Cl)cc2nc2ccc(OC)cc12` (stereo not shown) [quinacrine]: the “Selective killing of cancer cells” value was “selectively kills cancer cells but not normal cells”.
